{
  "source": "patent US20210277074A1",
  "target": "native GLP-1 receptor (optimized exendin-4 receptor cell line) (UniProt P43220)",
  "assay": "cell-based or functional assay",
  "data": [
    {"substance": "native exendin-4 (peptide)", "values": [
      {"measurement": "EC50, real-time calcium mobilization assay (FLIPR); exendin-4 from Anaspec", "value": 0.075, "unit": "nM"},
      {"measurement": "EC50, real-time calcium mobilization assay (FLIPR); exendin-4 from Tocris", "value": 0.11, "unit": "nM"}
    ]}
  ]
}
